Molecules are shown by their SMILES.

For the test, the target named is T1, Corticotropin-releasing factor receptor 1 (Homo sapiens, UniProt P34998).
T1 sequence (P34998 whole entry): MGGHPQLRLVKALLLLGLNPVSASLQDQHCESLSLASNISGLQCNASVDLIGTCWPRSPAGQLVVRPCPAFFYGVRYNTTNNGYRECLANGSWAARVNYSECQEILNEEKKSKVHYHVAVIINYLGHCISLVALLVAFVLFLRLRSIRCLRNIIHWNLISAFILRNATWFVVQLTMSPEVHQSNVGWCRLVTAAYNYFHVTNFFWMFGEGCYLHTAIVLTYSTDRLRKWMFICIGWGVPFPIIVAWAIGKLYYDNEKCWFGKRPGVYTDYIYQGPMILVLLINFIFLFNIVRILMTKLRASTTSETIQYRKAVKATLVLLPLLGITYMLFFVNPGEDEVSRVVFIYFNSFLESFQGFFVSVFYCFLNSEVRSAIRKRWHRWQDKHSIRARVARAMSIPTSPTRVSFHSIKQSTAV
Description: Inhibition of [125I]CRF binding to human corticotropin releasing factor receptor 1.

`Cc1cc(C)c(Nc2nc(C)nc(N3CC=CCC3)n2)c(C)c1` came in with an inhibitory constant (Ki) of 1.05 µM.

Values taken from ChEMBL document CHEMBL1129026, “Rapid microscale synthesis, a new method for lead optimization using robotics and solution phase chemistry: application to the synthesis and optimization of corticotropin-releasing factor1 receptor antagonists” (J Med Chem, 1996).
